# Values of other authors as cited in US8993117B2, “Devices with multiple surface functionality” (The Trustees of Princeton University, priority 2005, dated 2015).
# Conditions: cited from earlier work
molecule,measurement,value
"bone morphogenic protein-2 (BMP-2): titanium surfaces merely coated with BMP-2 (protein, UniProt P12643 283-396, looked up) Bone morphogenetic protein 2: QAKHKQRKRLKSSCKRHPLYVDFSDVGWNDWIVAPPGYHAFYCHGECPFPLADHLNSTNHAIVQTLVNSVNSKIPKACCVPTELSAISMLYLDENEKVVLKNYQDMVVEGCGCR",In vivo outcome of merely coated surface (in words),encapsulation of the surface by fibrous tissue
